Measurements reported in patent US4758421A, “Bleomycin conjugates and method” (priority 1985, dated 1988).

Test system: Chinese hamster ovary (CHO) cells
Test: CHO cell survival after 60 minutes exposure (FIG. 4)
Format: cell-based
Method: Chinese hamster ovary (CHO) cells were cultured in standard cell-culture medium, under log phase growth conditions. Increasing concentrations of either BL--Co--S--FeEDTA or FeEDTA were added to each of two groups of cells. The cells were incubated for 60 minutes at 37° C., and the percent cell survivors was determined conventionally by serial dilution in microtitre plates.

bleomycin [metal free bleomycin]
cell toxicity: high toxicity
